# PubChem BioAssay AID504634 (The Scripps Research Institute Molecular Screening Center, 2011)
# Chains of the proteins cited; added tags and fusions are not shown.
# UniProt P47898, whole entry, looked up: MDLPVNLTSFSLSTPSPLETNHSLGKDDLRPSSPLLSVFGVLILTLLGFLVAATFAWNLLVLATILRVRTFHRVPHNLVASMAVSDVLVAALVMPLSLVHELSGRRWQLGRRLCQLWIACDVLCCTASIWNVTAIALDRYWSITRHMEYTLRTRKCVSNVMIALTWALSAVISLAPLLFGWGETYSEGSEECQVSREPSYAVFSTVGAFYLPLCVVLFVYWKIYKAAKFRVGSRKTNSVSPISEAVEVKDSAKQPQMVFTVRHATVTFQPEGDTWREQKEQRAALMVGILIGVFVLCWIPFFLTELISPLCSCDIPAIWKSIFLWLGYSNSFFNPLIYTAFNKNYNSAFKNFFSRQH
# This is a selection; strong and weak results do not stand in their true shares. Active and inactive are the calls of the source. Cut-off read from the data, not from the text of the source: active = inhibition mostly above about 23% (no sharp cut-off); inactive = mostly below about 18%.
# Target: 5-hydroxytryptamine receptor 5A (Homo sapiens) (UniProt P47898)
# Assay: HTR5A inverse agonists in luminescence cell assay, primary screen, counter-screen for OPRM1-OPRD1 heterodimer inverse agonist project, full-deck HTS (AID 504634);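 note: 0% = cells with DMSO and 100% = no-cell wells with DMSO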
# Details: HTR5A cell line, inverse agonism, at 9.3 µM, active compounds read high
row,Structure (SMILES),inhibition
1,Cn1c(=O)c2c(ncn2CC(=O)Nc2cccc(S(=O)(=O)Nc3ccccc3F)c2)n(C)c1=O,inactive: 1.48%
2,CS(=O)(=O)c1ccc(Cl)c(NC(=O)COC(=O)C(O)(c2ccccc2)c2ccccc2)c1,inactive: 14.5%
3,C(=N\c1nc2ccccc2n1CCN1CCOCC1)/c1cccs1,inactive: -15.1%
4,CC(C)C(NS(=O)(=O)c1cccc2nsnc12)C(=O)N1CCn2c1nc1ccccc12 (stereo not given),inactive: -17%
5,Cc1nc2cc(C(F)(F)F)ccc2n1CCNc1nc(-c2ccc([N+](=O)[O-])c(Cl)c2)cs1,inactive: 10.9%
6,CCC(C)N(C(=O)Cn1cnc2c1c(=O)n(C)c(=O)n2C)C1CCS(=O)(=O)C1 (stereo not given),inactive: 3.44%
7,OCCNc1nc2ccccc2n1CCN1CCCCC1,inactive: -1.47%
8,Cc1nc2ccccc2n1CC(=O)NCCN1CCOCC1,inactive: 2.28%
9,O=[As](O)(O)c1cccnc1,inactive: -7.33%
10,Cn1c(=O)c2c(ncn2CC(=O)N2CCCCCC2)n(C)c1=O,inactive: 12.8%
11,CN(C)C(=O)Cn1c(=O)n(C)c2ccccc21,inactive: 2.79%
12,O=C(Cn1cnc2ccccc21)N/N=C/c1cccnc1,inactive: 5.27%
13,CCOC(=O)CC[C@H](NC(=O)Cn1cnc2c(OCc3ccccc3)ncnc21)C(=O)OCC,inactive: -21.6%
14,COc1ccc(CNC(=O)[C@H](C)NC(=O)N2CCn3c2nc2ccccc23)cc1,inactive: 0.27%
15,COc1cccc(CNC(=O)[C@H](CC(C)C)NC(=O)N2CCn3c2nc2ccccc23)c1,inactive: -8.35%
16,CCOP(=O)(Nc1cccc2ccccc12)OCC,inactive: 1.76%
17,COc1cccc(CNc2nc3ccccc3n2CCN2CCCCC2)c1,inactive: 4.29%
18,O=C(Nc1ccccc1)N1CCn2c(nc3ccccc32)C1,inactive: 2.18%
19,O=C(Nc1ccc2c(c1)nc1n2CCN(C2CCCCC2)C1)c1ccco1,inactive: -14%
20,O=C(CSc1nc2ccccc2n1CC(=O)N1CCCC1)Nc1ccc2c(c1)OCO2,inactive: -13.3%

row,Structure (SMILES),inhibition
1,O=C(CCCCCNC(=O)N1CCn2c1nc1ccccc12)NCc1ccccc1Cl,inactive: 23.4%
2,O=C(Cn1c(-c2ccccn2)nc2ccccc21)N/N=C/c1ccccn1,inactive: -10.4%
3,O=C(Cn1c(NCCO)nc2ccccc21)NCC1CCCO1 (stereo not given),inactive: 11%
4,Cc1ccc2c(c1)C1CN(C)CCC1N2S(=O)(=O)c1cc(C(F)(F)F)ccc1Cl (stereo not given),inactive: -23.4%
5,O=C(Cn1c(S(=O)(=O)Cc2ccccc2)nc2ccccc21)N1CCCCC1,inactive: -45.2%
6,COCCN1CCn2c(nc3cc(NC(=O)c4cccs4)ccc32)C1,inactive: -5.16%
7,CC(=O)Nc1ccc2c(c1)nc1n2CCN(C2CCCCC2)C1,inactive: -3.55%
8,CCN(CC)CCn1c(NC(=O)c2ccc(Cl)cc2)nc2ccccc21,inactive: -6.47%
9,Cn1c(=O)n(CC(N)=O)c2ccccc21,inactive: -11.2%
10,COc1cc(C2NCCC3(OCCO3)C2(C)C)cc(OC)c1OC (stereo not given),inactive: -18.5%
11,CC(C)[C@H](NC(=O)N1CCn2c1nc1ccccc12)C(=O)N[C@@H](C(=O)O)c1ccccc1,inactive: 6.68%
12,CC1CCC2C(=O)N(c3ccc(NC4CCN(Cc5ccccc5)CC4)c([N+](=O)[O-])c3)C(=O)C2C1 (stereo not given),inactive: 0.87%
13,O=C(Cn1cnc2c(NCc3ccccc3)ncnc21)NCC1CCCO1 (stereo not given),inactive: -5.13%
14,O=C(Cn1cnc2c(NCc3ccccc3)ncnc21)NCc1ccccn1,inactive: -3.15%
15,CCCC(=O)Nc1nnc(/C=C/c2ccc(OC)cc2)s1,inactive: 6.24%
16,Cc1ccc2c(c1)C1CN(C)CCC1N2C(=S)Nc1ccc(OC(F)F)cc1 (stereo not given),inactive: 14.2%
17,CC(=O)Nc1nc2ccccc2n1CCN(C)C,inactive: -2.33%
18,c1ccc2c(c1)nc1n2CCN1,inactive: 10%
19,Nc1cccc2c([As](=O)(O)O)cccc12,inactive: -13.6%
20,O=C(Cn1c(CO)nc2ccccc21)NCCc1ccccc1,inactive: 26.2%

row,Structure (SMILES),inhibition
1,Cc1ccc(NCCc2c([N+](=O)[O-])cc([N+](=O)[O-])cc2[N+](=O)[O-])cc1,inactive: -14.9%
2,O=C(Cn1c(C(F)(F)F)nc2ccccc21)Nc1ccccc1N1CCOCC1,inactive: -9.53%
3,COc1ccc(CNC(=O)Cn2cnc3c(OCc4ccccc4)ncnc32)cc1,inactive: -18.6%
4,O=C(Nc1nc2ccccc2n1CCN1CCOCC1)c1ccccc1,inactive: 0.55%
5,NNC(=O)Cn1cnc2ccccc21,inactive: -26.2%
6,Cc1ccc2c(c1)C1CN(C)CCC1N2C(=O)c1ccccc1NS(=O)(=O)c1cccc(C(F)(F)F)c1 (stereo not given),inactive: 1.02%
7,Oc1ccc(CC2(N3CCCC3)CCCCC2)cc1,inactive: 4.25%
8,Cn1c(=O)n(CCc2ccccc2)c(=O)c2c1nc1n2CCN1Cc1ccco1,inactive: -1.61%
9,C[C@H](NC(=O)N1CCn2c1nc1ccccc12)C(=O)NCc1ccc(F)cc1,inactive: 5.05%
10,CSCC[C@H](NC(=O)N1CCn2c1nc1ccccc12)C(=O)N1CCCCC1,inactive: -2.44%
11,CCCOP(=S)(Nc1nc(N)cc(=O)[nH]1)OCCC,inactive: -28.7%
12,O=C(CSc1nc2ccccc2n1CC(=O)N1CCOCC1)N1CCCC1,inactive: 15.3%
13,CCN(CC)CCCNC(=S)N1CCn2c(nc3ccccc32)C1,inactive: 3.54%
14,C[C@H](NC(=O)N1CCn2c1nc1ccccc12)C(=O)N1CCCCC1,inactive: -8.9%
15,CCc1cccc(CC)c1N(COC)C(=O)Cn1c(CO)nc2ccccc21,inactive: -0.98%
16,CSc1nc2ccccc2n1CC(=O)Nc1ccc(C)c(C)c1,inactive: -2.77%
17,CCOC(=O)CC[C@H](NC(=O)Cn1cnc2c(SC)nc(N)nc21)C(=O)OCC,inactive: -1.7%
18,COc1ccc(/C=N/NC(=O)Cn2cnc3c2c(=O)n(C)c(=O)n3C)cc1,inactive: -22.7%
19,COC(=O)C1=C(Cn2cnc3ccccc32)NC(=O)NC1c1cc(C)ccc1C (stereo not given),inactive: -1.24%
20,c1ccc(CN2CCC(Nc3nc(-c4cccnc4)nc4ccccc34)CC2)cc1,inactive: -5.05%
